In ChEMBL document CHEMBL5500354, “Novel selective agents for the degradation of AR/AR-V7 to treat advanced prostate cancer” (Eur J Med Chem, 2024) one finds Activity data, which are given here for 1 molecule.

The chains behind the UniProt entries cited, without tags or fusion partners.
UniProt P03372, whole entry: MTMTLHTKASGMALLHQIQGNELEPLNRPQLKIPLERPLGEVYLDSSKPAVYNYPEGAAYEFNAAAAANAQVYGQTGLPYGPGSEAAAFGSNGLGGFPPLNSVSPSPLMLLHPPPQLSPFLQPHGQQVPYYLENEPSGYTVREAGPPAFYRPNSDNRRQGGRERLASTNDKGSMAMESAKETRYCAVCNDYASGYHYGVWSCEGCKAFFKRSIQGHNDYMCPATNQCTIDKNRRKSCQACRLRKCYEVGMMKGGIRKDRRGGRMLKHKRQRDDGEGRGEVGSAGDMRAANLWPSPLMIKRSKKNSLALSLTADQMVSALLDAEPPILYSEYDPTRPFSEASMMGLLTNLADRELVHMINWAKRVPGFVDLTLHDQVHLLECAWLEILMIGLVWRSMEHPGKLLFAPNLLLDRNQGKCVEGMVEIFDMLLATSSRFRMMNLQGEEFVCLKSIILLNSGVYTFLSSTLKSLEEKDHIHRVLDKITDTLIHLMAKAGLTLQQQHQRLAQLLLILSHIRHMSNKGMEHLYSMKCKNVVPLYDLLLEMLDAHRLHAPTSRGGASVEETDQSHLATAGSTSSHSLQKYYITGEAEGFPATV

Molecules are shown by their SMILES. Active and inactive are the calls of the source. No cut-off for these calls is given here.

The nature of data set [1]: Toxicity in Sprague-Dawley rat at 10 mg/kg, IG measured after 24 hrs. It counts as organism-based. Conditions: in vivo, po.
Data set [2] concerns the target T1, Glucocorticoid receptor (Homo sapiens) (UniProt P04150).
T1 sequence (whole entry): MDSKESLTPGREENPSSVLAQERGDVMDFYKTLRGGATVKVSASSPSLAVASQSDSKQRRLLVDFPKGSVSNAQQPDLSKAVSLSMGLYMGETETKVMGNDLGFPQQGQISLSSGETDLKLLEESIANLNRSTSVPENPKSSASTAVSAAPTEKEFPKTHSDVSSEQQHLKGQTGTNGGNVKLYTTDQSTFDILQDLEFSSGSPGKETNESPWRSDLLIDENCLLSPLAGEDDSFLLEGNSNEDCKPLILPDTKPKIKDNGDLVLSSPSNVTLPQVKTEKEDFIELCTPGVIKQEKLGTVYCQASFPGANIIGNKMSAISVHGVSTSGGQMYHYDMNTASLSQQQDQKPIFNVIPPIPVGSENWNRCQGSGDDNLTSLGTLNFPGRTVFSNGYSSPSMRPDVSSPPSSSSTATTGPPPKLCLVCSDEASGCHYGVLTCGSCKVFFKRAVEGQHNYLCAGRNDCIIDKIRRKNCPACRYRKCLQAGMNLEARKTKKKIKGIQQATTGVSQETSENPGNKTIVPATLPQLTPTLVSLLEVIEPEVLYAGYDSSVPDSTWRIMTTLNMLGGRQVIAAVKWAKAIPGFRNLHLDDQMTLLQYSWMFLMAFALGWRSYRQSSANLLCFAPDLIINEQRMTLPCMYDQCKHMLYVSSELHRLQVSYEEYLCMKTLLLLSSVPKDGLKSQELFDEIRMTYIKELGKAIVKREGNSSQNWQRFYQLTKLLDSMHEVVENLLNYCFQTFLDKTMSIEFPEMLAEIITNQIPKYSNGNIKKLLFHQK
The data set can be described thus: Induction of glucocorticoid receptor (unknown origin) degradation by Western blot analysis.

Data set [3] concerns the target Estrogen receptor (Homo sapiens) (UniProt P03372). The data set can be described thus: Induction of estrogen receptor (unknown origin) degradation by Western blot analysis.
Data set [4] is described as follows: Toxicity in Balb/c nude mouse xenografted with human 22Rv1 cells assessed as body weight loss at 10 to 20 mg/kg, ip administered every 3 days for 22 days. It counts as organism-based, CWR22R. Particulars: in vivo, 528 h, dose 10-20 mg/kg, time 22 day. For orientation: A xenograft is tissue or cells of one species grown in another, often human tumour cells in immunodeficient mice.

The target of data set [5] is T2, Androgen receptor (Mus musculus) (UniProt P19091).
T2 sequence (whole entry): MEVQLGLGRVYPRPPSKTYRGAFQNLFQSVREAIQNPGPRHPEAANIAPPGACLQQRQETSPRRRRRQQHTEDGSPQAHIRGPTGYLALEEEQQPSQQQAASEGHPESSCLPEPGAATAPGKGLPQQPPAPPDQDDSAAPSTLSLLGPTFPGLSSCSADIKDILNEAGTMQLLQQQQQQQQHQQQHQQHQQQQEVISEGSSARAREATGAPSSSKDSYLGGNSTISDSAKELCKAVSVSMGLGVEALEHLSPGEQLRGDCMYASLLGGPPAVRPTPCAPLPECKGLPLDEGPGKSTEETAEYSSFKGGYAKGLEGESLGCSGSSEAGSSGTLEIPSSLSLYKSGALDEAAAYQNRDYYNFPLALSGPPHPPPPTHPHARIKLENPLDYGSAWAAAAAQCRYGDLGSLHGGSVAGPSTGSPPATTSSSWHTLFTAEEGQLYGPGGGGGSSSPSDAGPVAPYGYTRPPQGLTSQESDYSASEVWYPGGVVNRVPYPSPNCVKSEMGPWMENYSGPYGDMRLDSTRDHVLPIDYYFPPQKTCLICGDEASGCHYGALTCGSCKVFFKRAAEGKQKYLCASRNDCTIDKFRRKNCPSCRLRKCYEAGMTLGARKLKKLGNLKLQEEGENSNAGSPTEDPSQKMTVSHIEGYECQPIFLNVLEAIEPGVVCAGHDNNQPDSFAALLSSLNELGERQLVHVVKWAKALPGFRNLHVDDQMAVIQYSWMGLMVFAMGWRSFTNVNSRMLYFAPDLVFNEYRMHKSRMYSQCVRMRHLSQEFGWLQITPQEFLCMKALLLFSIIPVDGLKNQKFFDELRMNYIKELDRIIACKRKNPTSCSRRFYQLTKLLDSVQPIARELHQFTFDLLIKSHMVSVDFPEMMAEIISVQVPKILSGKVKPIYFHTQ
Nature of the data set: In vivo induction of androgen receptor degradation in Balb/c nude mouse xenografted with human 22Rv1 cells assessed as decrease in AR protein expression in tumor at 10 to 20 mg/kg, ip administered every 3 days for 22 days by DAPI staining based immunohistochemical analysis. It counts as functional, organism-based. Particulars: CWR22R, dose 10-20 mg/kg, time 22.0 day.

On to `N#Cc1ccc(O[C@H]2CC[C@H](NC(=O)c3ccc(N4CCC(Cc5ccc(NC6CN(CCCF)C6)cc5)CC4)nn3)CC2)cc1Cl`, for which the Activity result in data set [1] and in data set [4] was “Non-Toxic” each time. The outcome in data set [2] and in data set [3] was inactive. In addition, in data set [5], the result was Active.
